Values quoted from earlier work in patent US20070212428A1, “METHODS AND COMPOSITIONS FOR TREATING MOOD DISORDER” (MOOD MANAGEMENT SCIENCES, INC., priority 2004, published 2007).
Counter-ions that a name gives are not always drawn.

Columns and labels:
[1] = tested on: receptors for benzodiazepine, glutamate, N-methyl-D-aspartate (NMDA), quisqualate, kainite, strychnine-insensitive or strychnine-sensitive glycine, α1, α2, or …; conditions: at concentrations of 100 μM; cited from earlier work
[2] = tested on: dopamine D2 and D3, serotonin 5-HT1A and 5-HT2A receptors; conditions: cited from earlier work
[3] = tested on: dopamine D4, serotonin 5-HT2C and 5-HT7, α-adrenergic and histamine H1 receptors; conditions: cited from earlier work
[4] = tested on: serotonergic (5-HT1-7) or other receptors including α-adrenergic, β-adrenergic, dopamine (D-1-5), histamine (H1-3), muscarinic (M1-5), and benzodiazepine …; conditions: cited from earlier work
[5] = tested on: serotonin 5-HT2A/2C, dopamine D1-4, muscarinic M1-5, histamine H1, and adrenergic α1 receptors; conditions: cited from earlier work
[6] = tested on: serotonin 5-HT1A and 5-HT2 receptors, dopamine D1 and D2 receptors, histamine H1 receptors, and adrenergic α1 and α2 receptors; conditions: cited from earlier work

## 1-(aminoethyl)cyclohexaneacetic acid [gabapentin]
[1]
  affinity: does not exhibit affinity

## O=C1CCc2ccc(OCCCCN3CCN(c4cccc(Cl)c4Cl)CC3)cc2N1 [aripiprazole, 7-[4-[4-(2,3-dichlorophenyl)-1-piperazinyl]butoxy]-3,4-dihydrocarbostyril]
[2]
  affinity: high affinity
[3]
  affinity: moderate affinity

## CN(C)CCC[C@@]1(c2ccc(F)cc2)OCc2cc(C#N)ccc21 [escitalopram, S-(+)-1-[3-(dimethylamino)propyl]-1-(p-fluorophenyl)-5-phthalancarbonitrile oxalate]
[4]
  affinity: no or very low affinity

## Cc1cc2c(s1)Nc1ccccc1N=C2N1CCN(C)CC1 [olanzapine, 2-methyl-4-(4-methyl-1-piperazinyl)-10H-thieno[2,3-b][1,5]benzodiazepine]
[5]
  binding: high affinity binding

## OCCOCCN1CCN(C2=Nc3ccccc3Sc3ccccc32)CC1 [quetiapine, 5-[2-(4-dibenzo[b,f][1,4]thiazepin-11-yl-1-piperazinyl)ethoxy]ethanol fumarate]
[6]
  functional activity: antagonist
